These results are taken from ChEMBL document CHEMBL1132635, “N6,5'-Disubstituted adenosine derivatives as partial agonists for the human adenosine A3 receptor” (J Med Chem, 1999).

Protein sequences, listed by entry. Tags and fused reporters are not part of them.
UniProt P25099, whole entry: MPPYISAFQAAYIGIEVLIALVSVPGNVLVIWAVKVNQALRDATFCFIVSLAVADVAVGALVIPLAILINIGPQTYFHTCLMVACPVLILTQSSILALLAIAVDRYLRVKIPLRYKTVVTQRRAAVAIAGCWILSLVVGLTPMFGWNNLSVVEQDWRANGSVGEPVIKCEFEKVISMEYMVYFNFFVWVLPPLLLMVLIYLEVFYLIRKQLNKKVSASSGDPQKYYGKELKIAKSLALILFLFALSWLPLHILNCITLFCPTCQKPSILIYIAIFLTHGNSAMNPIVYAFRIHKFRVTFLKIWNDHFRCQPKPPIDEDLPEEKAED

The pKi is the negative decadic logarithm of the Ki, by convention in mol/L.

The assay has as its target Adenosine receptor A1 (Rattus norvegicus, UniProt P25099). As to the kind of experiment: Displacement of [3H]DPCPX from rat cortical membranes Adenosine A1 receptor. Type of assay: cell membranes, Membrane.

The structures appear in SMILES notation. pKi: −log10 of the molar value.

For `OC[C@H]1O[C@@H](n2cnc3c(NCc4ccccc4)ncnc32)[C@H](O)[C@@H]1O` [N6-BENZYLADENOSINE], the pKi is 5.35.
